Test results reported in ChEMBL document CHEMBL4152336, “Optimization of the first small-molecule relaxin/insulin-like family peptide receptor (RXFP1) agonists: Activation results in an antifibrotic gene expression profile” (Eur J Med Chem, 2018).

Target: T1, Relaxin receptor 1 (Homo sapiens) (UniProt Q9HBX9)
T1 sequence (whole entry): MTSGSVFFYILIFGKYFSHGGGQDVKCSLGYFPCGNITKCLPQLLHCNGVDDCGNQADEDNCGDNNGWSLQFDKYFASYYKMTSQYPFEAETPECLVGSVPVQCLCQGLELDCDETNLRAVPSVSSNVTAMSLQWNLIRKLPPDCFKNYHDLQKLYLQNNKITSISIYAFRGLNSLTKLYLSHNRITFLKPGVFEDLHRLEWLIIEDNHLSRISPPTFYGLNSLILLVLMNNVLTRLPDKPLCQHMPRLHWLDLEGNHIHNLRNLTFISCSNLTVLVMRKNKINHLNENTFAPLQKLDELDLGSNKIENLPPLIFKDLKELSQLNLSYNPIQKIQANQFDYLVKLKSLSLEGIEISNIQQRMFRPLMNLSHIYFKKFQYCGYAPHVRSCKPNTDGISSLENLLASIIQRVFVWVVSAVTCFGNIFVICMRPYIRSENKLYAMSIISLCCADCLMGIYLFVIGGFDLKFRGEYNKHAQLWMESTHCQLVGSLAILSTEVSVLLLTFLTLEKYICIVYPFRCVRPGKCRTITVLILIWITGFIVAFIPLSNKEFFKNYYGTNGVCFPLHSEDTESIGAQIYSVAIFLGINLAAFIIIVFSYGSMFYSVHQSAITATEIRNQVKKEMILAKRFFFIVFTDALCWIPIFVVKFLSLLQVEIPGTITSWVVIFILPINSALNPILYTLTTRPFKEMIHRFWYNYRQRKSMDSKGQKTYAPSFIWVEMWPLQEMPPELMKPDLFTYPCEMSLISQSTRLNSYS
Type: functional, cell-based
Conditions: HEK293

CC(C)Oc1ccccc1C(=O)Nc1ccccc1C(=O)Nc1cccc(S(=O)(=O)C(F)(F)F)c1
Efficacy: 98%
